Source: PMC10307939 (Pharmacology Research & Perspectives, 2023)

Sequences of proteins named here, by UniProt entry; tags and fusion partners are left off.
UniProt P42866, whole entry: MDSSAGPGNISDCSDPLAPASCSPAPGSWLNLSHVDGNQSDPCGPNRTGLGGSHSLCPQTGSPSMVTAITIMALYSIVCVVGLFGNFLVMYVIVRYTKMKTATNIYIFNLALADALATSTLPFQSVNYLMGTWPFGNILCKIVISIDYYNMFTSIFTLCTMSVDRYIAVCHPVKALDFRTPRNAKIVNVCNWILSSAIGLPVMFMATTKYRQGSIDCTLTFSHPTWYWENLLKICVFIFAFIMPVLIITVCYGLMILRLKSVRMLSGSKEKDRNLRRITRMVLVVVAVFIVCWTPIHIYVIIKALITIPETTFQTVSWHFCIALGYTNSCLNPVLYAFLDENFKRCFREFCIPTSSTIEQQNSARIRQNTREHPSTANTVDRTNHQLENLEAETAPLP

Target: mouse mu‐opioid receptor (Mus musculus, UniProt P42866)
Test: Ligand‐stimulated [35S]GTPγS binding, mMOR‐CHO membranes
Type: biochemical
Conditions: MOR‐CHO cells

DAMGO [reference compound] was tested, and the “Full agonist stimulation (% over basal)” value was 473.5% ± 7.2.
